Results reported in PMC7723054.
Some of the results follow.

T1: LIN28A (human?, UniProt Q9H9Z2 1-209)
T1 sequence: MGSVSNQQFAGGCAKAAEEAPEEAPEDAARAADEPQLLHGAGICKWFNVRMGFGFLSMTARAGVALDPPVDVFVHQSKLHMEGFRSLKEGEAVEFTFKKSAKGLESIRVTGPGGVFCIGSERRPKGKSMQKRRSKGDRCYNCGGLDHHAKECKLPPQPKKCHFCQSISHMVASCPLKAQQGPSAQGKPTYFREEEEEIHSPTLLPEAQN

T2: CIRBP (Homo sapiens, UniProt Q14011 1-172)
T2 sequence: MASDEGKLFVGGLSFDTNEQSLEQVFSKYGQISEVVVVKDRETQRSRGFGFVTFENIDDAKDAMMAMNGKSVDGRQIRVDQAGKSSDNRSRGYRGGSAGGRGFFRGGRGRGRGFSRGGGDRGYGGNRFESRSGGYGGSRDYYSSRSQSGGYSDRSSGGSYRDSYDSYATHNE

T3: DHX36 (Homo sapiens, UniProt Q9H2U1 1-1008)
T3 sequence: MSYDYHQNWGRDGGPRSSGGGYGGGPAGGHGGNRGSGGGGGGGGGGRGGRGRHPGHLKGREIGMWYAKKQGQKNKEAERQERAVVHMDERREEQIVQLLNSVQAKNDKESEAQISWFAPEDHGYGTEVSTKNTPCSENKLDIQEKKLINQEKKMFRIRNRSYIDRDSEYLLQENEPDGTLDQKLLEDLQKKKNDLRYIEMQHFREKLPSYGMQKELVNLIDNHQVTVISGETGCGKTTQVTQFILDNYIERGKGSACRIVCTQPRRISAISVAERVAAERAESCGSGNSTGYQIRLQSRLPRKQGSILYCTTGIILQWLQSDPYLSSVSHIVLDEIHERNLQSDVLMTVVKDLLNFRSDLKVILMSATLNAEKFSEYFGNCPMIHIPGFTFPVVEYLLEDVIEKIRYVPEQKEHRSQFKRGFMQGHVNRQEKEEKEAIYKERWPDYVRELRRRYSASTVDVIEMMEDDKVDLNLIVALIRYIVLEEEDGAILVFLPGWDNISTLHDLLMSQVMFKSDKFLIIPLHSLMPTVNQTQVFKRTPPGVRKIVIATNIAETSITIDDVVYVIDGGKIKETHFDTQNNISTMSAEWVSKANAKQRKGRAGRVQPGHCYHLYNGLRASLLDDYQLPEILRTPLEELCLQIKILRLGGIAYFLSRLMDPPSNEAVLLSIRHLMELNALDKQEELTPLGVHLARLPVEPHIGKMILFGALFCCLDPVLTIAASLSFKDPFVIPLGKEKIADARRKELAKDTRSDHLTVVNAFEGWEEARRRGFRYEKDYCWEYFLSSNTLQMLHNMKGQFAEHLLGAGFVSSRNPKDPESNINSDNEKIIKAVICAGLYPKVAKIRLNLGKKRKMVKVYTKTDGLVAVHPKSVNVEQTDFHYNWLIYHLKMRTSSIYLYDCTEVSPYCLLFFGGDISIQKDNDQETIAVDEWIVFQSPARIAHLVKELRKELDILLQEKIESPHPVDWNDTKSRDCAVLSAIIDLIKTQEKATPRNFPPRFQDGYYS


What was measured:
Assay in all cases: FOREST: bead pull-down of RNA structure library v1, barcode microarray; U1A/LIN28A: 20 mM HEPES pH 7.5, 80 mM KCl, 20 mM NaCl, 10% glycerol, 2 mM DTT, 0.1 ug/uL BSA, 4 C; BG4/CIRBP/DHX36: 10 mM Tris-HCl pH 7.5, 100 mM KCl (or LiCl),; high values mean tight binding
LIN28A = target: T1, LIN28A
CIRBP = target: T2, CIRBP
DHX36 = target: T3, DHX36

Row | Binder | binding signal (LIN28A) [z-score] | binding signal (CIRBP) [z-score] | binding signal (DHX36) [z-score]
1 | hsa-mir-203a (structured_RNA) RNA: GGGAGAUGGCAAAUGCUACGGGUUACCGGGUGUACGAAGUUUCAGCCAACAGUUCUGUAGCGCAAUUGUGGCUGAAGCUUCGUGCAC | -0.658 | -0.737 | -0.145
2 | hsa-mir-135a-1 (structured_RNA) RNA: GGGAAGACGGUUAUCGAUCCAUGACAUGGGUGUACGAAGUUUCAGCUAUGUGAUUCUACUGCUCACUCAUAUAGCUGAAGCUUCGUGCAC | -0.661 | 0.731 | -0.436
3 | hsa-mir-3607 (structured_RNA) RNA: GGGAACGUAUAGAUACUGCCAGCUAUGAGGUGUACGAAGUUUCAGCCAGUAUGAAUGAAUUCAUGAUACUGGCUGAAGCUUCGUGCAC | -0.678 | 0.215 | -0.301
4 | hsa-mir-3159 (structured_RNA) RNA: GGGAGGAGUCGUAGCCCUACCCCAUAAUGGUGUACGAAGUUUCAGCCCACGGGCUGGGCACAGUGGGCUGAAGCUUCGUGCAC | -0.67 | -1.07 | -0.405
5 | hsa-mir-1976 (structured_RNA) RNA: GGGAGGUAACUUGUAGGCCGCCGUACAUGGUGUACGAAGUUUCAGCGGGUCCUAAGGUGUGUCCUCGCUGAAGCUUCGUGCAC | -0.678 | -1.61 | -0.603
6 | hsa-mir-125b-2 (structured_RNA) RNA: GGGAACCCCACAUGUAAGAAGGAUCUACGGUGUACGAAGUUUCAGCGUGAGGUAUUUUAGUAACAUCACGCUGAAGCUUCGUGCAC | -0.63 | -0.496 | -1.25
7 | hsa-mir-4305 (structured_RNA) RNA: GGGAAAGUUAACAACAUGGCCUAUCUCGGGUGUACGAAGUUUCAGCCUGGGUUCUUAGAGGCCUAAUCCUCUACAAACUCAGUUUGCUGAAGCUUCGUGCAC | -0.681 | 0.0186 | -0.879
8 | hsa-mir-635 (structured_RNA) RNA: GGGAAACUCAGUGAAGGCUGCUAGAUACGGUGUACGAAGUUUCAGCGUCCAUUAGGCUUUGUUAUGGAAACUUCUCCUGAUCGCUGAAGCUUCGUGCAC | -0.67 | 0.987 | -1.09
9 | hsa-mir-4505 (structured_RNA) RNA: GGGAAAUGAGGACGUUCAACUAUGCUCCGGUGUACGAAGUUUCAGCCGGACACCCGGCCUCCACUUUCUGUGGCAGGUACCUCCUCCAGCUGAAGCUUCGUGCAC | -0.637 | 0.0605 | -0.762
10 | hsa-mir-3123 (structured_RNA) RNA: GGGAAAACUAGCGGAUGCCUGGUGGAUGGGUGUACGAAGUUUCAGCUCCCAUUUCCACAUGGAGAGUGGAGCCCAGAGCUGAAGCUUCGUGCAC | -0.667 | 0.00805 | -0.248
11 | hsa-mir-1258 (structured_RNA) RNA: GGGACACCGCAGGUUUGUGUCAUCAUACGGUGUACGAAGUUUCAGCAACUCCUGCGAGUCCCUGGAGUUGCUGAAGCUUCGUGCAC | -0.629 | 0.309 | -0.394
12 | hsa-mir-4797 (structured_RNA) RNA: GGGAAAGUGGUGUCGCUCAACAGUCCCUGGUGUACGAAGUUUCAGCUGAAAGGUUUUUUCUCUCAGCUGAAGCUUCGUGCAC | -0.634 | -1.28 | -0.804
13 | hsa-mir-3977 (structured_RNA) RNA: GGGAACAAGACUAGGGCCCACCAGUUGCGGUGUACGAAGUUUCAGCCUUAAGUGGUUCGGGUAAAUCACUUUAAGCUGAAGCUUCGUGCAC | -0.673 | 0.5 | -0.201
14 | hsa-mir-1178 (structured_RNA) RNA: GGGAAGCCCGUGGCCAAAUAUGUCAGUCGGUGUACGAAGUUUCAGCGCAUGCCCGCUGAAGCUUCGUGCAC | -0.656 | -0.207 | -0.425
15 | hsa-mir-6772 (structured_RNA) RNA: GGGAACUCCAGUUGCUGGGGAUACUACUGGUGUACGAAGUUUCAGCCUGAGGACUGAGGCUCACCUUGGCUGAAGCUUCGUGCAC | -0.643 | -0.663 | -0.746
16 | hsa-mir-6515 (structured_RNA) RNA: GGGAAACUGUCCCUGAAGCGGACCAGAGGGUGUACGAAGUUUCAGCGACAUCUGGGCCAACUCUGAUCUCGCUGAAGCUUCGUGCAC | -0.627 | 0.476 | -0.438
17 | hsa-mir-92a-1 (structured_RNA) RNA: GGGAAUAACGGCCCUUAGAAAGACUCCGGGUGUACGAAGUUUCAGCAAUGCUGUGUUUCUGUAUGGUAUUGCUGAAGCUUCGUGCAC | -0.671 | -0.136 | -0.602
18 | hsa-mir-4725 (structured_RNA) RNA: GGGAAGUCGGAAUUACGACGAUAUCCUUGGUGUACGAAGUUUCAGCCCACCCACCAGGGAGCUUUCCAUGGGCUGUGGGGCUGAAGCUUCGUGCAC | -0.678 | 0.095 | -1.03
19 | hsa-mir-2113 (structured_RNA) RNA: GGGAAUUAAGCCCACGCCUAAGCCUUGUGGUGUACGAAGUUUCAGCAAAUCCCGUUAAUAAGUAAGAGGAUUUGCUGAAGCUUCGUGCAC | -0.642 | -0.822 | -0.859
20 | hsa-mir-548ab (structured_RNA) RNA: GGGAACAGUCCAGGGGUUAUGUCCUGAUGGUGUACGAAGUUUCAGCUGCUAUUACUUGUAUUUAUUUGUAAUGCAGCUGAAGCUUCGUGCAC | -0.675 | -0.249 | -0.434
21 | hsa-mir-675 (structured_RNA) RNA: GGGAGCUUCGUUCAGUCGCAUGAAAACAGGUGUACGAAGUUUCAGCACAGUGGACUUGGUGACGCUGUGCUGAAGCUUCGUGCAC | -0.662 | -0.29 | 0.893
22 | hsa-mir-378g (structured_RNA) RNA: GGGAUGGCGCAUUCGCAGGCAUUUAUCAGGUGUACGAAGUUUCAGCAGAAGACCUGCUGAAGCUUCGUGCAC | -0.67 | 0.778 | -0.044
23 | hsa-mir-4785 (structured_RNA) RNA: GGGACUCCAGCUUGAUCGAAAAUGUUGCGGUGUACGAAGUUUCAGCCUCCUCCGCUGCCGCCGGGAGAGGCUGAAGCUUCGUGCAC | -0.649 | -0.164 | 0.199
24 | hsa-mir-6780b (structured_RNA) RNA: GGGACUGGGCACAAGGACGUUGCAUAAAGGUGUACGAAGUUUCAGCGGAAGACACAUGAGCAGUGCCUCCACUUCACGCCUCUCCCGCUGAAGCUUCGUGCAC | -0.66 | 0.0459 | -0.463
25 | hsa-mir-4697 (structured_RNA) RNA: GGGAAAAUAGGUAAGAGACAAUGAUCGCGGUGUACGAAGUUUCAGCGACGUGAAGGGACCACAUCCCGCUUCAUGUCGCUGAAGCUUCGUGCAC | -0.679 | -0.0335 | 0.162
26 | hsa-mir-1292 (structured_RNA) RNA: GGGAAUGCGUGUUGGCGAGAGUUGCAUGGGUGUACGAAGUUUCAGCGCUGAGGUUGCGUUGACGCUCGCGCUGAAGCUUCGUGCAC | -0.632 | -0.586 | -1.21
